Results published in article PMC2099187 (The Journal of Cell Biology, 2007).

Chains of the proteins cited; added tags and fusions are not shown. Residues count along the entry.
UniProt Q63118, 24-464: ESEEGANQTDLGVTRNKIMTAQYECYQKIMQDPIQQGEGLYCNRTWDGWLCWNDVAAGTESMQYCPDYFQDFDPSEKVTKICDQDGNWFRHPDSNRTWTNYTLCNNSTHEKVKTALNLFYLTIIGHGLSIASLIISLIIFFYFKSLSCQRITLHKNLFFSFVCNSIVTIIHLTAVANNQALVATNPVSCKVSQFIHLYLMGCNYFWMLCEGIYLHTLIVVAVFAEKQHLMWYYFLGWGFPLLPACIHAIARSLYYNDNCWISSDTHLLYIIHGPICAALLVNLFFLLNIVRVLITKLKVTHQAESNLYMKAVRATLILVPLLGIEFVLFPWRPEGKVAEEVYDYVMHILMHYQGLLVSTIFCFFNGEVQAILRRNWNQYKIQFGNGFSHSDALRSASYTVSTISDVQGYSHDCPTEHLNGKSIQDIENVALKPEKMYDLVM
UniProt Q9JJ74, 27-148: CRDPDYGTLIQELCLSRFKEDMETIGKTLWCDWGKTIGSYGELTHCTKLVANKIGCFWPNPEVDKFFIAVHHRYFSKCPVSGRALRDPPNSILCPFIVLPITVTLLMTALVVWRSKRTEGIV

Target: CLR/RAMP1 (Rattus norvegicus, UniProt Q63118+Q9JJ74)
Assay: pH dependency of 125I-CGRP binding to CLR/RAMP1 membranes
Conditions: 4°C, relative to pH 7.5 (100%)

Reduction of specific binding at pH 5.5 (MES buffer pH 5.5, 90 min): > 75% | Reduction of specific binding at pH 6.0 (MES buffer pH 6.0, 90 min): > 30%
Substance: ^125I-His^8-CGRP: ^125I-His^8 human CGRP from GE Healthcare
